Experimental data published in ChEMBL document CHEMBL1123047, “Quantitative evaluation of the beta 2-adrenoceptor affinity of phenoxypropanolamines and phenylethanolamines” (J Med Chem, 1985).

Protein sequences, listed by entry. Tags and fused reporters are not part of them.
UniProt Q28044, whole entry: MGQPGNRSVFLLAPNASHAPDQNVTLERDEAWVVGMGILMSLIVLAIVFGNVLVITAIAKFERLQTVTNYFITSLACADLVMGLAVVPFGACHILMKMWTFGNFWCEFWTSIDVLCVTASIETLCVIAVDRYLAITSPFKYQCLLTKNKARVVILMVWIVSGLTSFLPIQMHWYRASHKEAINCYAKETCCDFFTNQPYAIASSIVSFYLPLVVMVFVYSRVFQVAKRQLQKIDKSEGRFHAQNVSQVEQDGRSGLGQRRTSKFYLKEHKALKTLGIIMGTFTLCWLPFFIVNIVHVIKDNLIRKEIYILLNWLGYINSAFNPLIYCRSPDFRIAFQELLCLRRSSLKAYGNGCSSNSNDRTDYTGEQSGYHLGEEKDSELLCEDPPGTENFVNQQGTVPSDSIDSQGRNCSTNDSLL

Assays:
[1] = molecular target: Beta-2 adrenergic receptor (Bos taurus, UniProt Q28044); settings: read-out: Kd app
[2] = molecular target: Beta-2 adrenergic receptor (Bos taurus) (UniProt Q28044)

In the case of CC(C)(C)NCC(O)c1cc(Cl)c(N)c(Cl)c1 (configuration not stated) [CLENBUTEROL], the Kd [1] is reported as 0.036 µM and the -Log KD [2] is reported as 7.74.
